## Measured affinities in a library of Ab-14 heavy chain variants

Binding partner: SARS-CoV-2 spike HR2 peptide, sequence PDVDLGDISGINAS.

Ab-14 is the parent antibody, in scFv form: VH, then three GGGGS repeats, then VL. The light chain is unchanged in all variants.
VH: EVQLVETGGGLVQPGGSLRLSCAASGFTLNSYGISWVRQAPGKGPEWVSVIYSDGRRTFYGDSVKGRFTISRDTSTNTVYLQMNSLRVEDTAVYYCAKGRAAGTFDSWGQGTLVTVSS
VL: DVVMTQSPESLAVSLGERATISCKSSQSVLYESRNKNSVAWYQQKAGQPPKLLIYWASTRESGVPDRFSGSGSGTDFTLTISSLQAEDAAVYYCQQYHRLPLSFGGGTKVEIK

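Phage display of a naive human antibody library on the peptide gave the parent. The library (AAYL49) carries one to three amino acid substitutions per variant, with no insertions or deletions. In AlphaSeq, yeast of one mating type display the scFv and yeast of the other type display the target. Pairs that bind mate more often; barcode pairs of the diploids are counted by sequencing. A regression on co-assayed BCL2-family reference pairs converts the normalised counts of each replicate to an apparent Kd. Mating was done three times.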

The whole VH of each variant is written out.
The read-out is the apparent dissociation constant on a log10 scale (nM): the lower, the stronger.
Averages over replicates are reported, and they cover detected replicates only.
A pair that was not seen in any replicate is written "no signal"; this usually means weak binding, but a binder can also be missed.

VH | mean, log10 nM | replicates with signal | control signals
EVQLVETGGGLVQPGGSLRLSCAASGFTLNSYGIGWVRQAPGKGPEWVSVIYSDGRRTFTGSSVKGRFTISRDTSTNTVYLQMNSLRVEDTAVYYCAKGRAAGTFDSWGQGTLVTVSS | 5.54 | 2/3 | 3/9
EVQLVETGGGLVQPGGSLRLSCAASGFTLNSMGISWVRQAPGKGPEWVSVIYQDGRRTFYGDSVKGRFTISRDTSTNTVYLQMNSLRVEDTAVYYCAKGRAAVTFDSWGQGTLVTVSS | 5.12 | 1/3 | 2/9
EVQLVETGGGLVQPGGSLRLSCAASGFTLNSYNSSWVRQAPGKGPEWVSVIYSDGRRTFYGDSVKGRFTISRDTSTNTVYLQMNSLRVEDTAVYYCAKGRAKGTFDSWGQGTLVTVSS | 4.97 | 1/3 | 2/9
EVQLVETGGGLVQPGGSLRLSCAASGFTGSPYGISWVRQAPGKGPEWVSVIYSDGRRTFYGDSVKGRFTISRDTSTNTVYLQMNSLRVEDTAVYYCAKGRAAGTFDSWGQGTLVTVSS | 4.08 | 1/3 | 2/9
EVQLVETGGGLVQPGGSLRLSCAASGFTFNSYGESWVRQAPGKGPEWVSVIYSFGRRTFYGDSVKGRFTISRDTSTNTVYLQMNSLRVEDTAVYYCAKGRAAGTFDSWGQGTLVTVSS | no signal | 0/3 | 0/9
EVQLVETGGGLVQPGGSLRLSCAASGFTLNSYGISWVRQAPGKGPEWVSLIYSDGRLTFYGDSVKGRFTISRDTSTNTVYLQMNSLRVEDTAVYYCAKGRQAGTFDSWGQGTLVTVSS | no signal | 0/3 | 0/9
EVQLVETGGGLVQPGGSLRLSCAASGFTLNSYGISWVRQAPGKGPEWVSVIYSDGRRTFYRDVVKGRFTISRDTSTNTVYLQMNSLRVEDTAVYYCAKGRAAGTFDSWGQGTLVTVSS | no signal | 0/3 | 0/9
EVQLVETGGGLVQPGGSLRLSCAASGFTLNSYGISWVRQAPGKGPEWVSVIYSWGRMDFYGDSVKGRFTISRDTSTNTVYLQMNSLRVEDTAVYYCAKGRAAGTFDSWGQGTLVTVSS | 3.15 | 1/3 | 2/9
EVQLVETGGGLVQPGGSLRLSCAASGFTLNSQGISWVRQAPGKGPEWVSMNYSDGRRTFYGDSVKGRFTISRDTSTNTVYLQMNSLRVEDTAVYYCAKGRAAGTFDSWGQGTLVTVSS | 4.93 | 1/3 | 1/9
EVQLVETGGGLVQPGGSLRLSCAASGFTLNSYGISWVRQAPGKGPEWVSVISSDGRRTKYGDSVKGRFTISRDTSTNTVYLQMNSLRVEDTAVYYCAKGEAAGTFDSWGQGTLVTVSS | 4.83 | 2/3 | 3/9
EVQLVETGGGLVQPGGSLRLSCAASGFTLNSYGISWVRQAPGKGPEWVSVITSDARRTFYGDSLKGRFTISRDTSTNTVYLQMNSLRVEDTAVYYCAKGRAAGTFDSWGQGTLVTVSS | no signal | 0/3 | 0/9
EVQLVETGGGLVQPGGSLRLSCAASTFTLNSYGISWVRQAPGKGPEWVSVIYDDGRRTFYGDSVKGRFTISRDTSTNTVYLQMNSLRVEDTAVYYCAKGRVAGTFDSWGQGTLVTVSS | no signal | 0/3 | 1/9
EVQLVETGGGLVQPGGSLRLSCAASGFTLNEYGISWVRQAPGKGPEWVSVIYSDGRRTFYGDSVKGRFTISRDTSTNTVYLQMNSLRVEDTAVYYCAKGQAAGTFDCWGQGTLVTVSS | 0.91 | 3/3 | 0/9
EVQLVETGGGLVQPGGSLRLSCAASHFTLNSYGISWVRQAPGKGPEWVSVIQSDGRTTFYGDSVKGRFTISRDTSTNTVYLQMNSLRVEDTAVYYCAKGRAAGTFDSWGQGTLVTVSS | 5.03 | 2/3 | 2/9
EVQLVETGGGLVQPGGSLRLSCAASGFTLNNYGESWVRQAPGKGPEWVSVIYSDGRRTFYGDSVKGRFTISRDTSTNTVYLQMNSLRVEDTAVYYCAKGRAAGTFDSWGQGTLVTVSS | 5.00 | 1/3 | 1/9
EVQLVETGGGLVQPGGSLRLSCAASGFTINSYGIIWVRQAPGKGPEWVSVIYSDGFRTFYGDSVKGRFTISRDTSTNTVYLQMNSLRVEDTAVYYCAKGRAAGTFDSWGQGTLVTVSS | 5.49 | 1/3 | 4/9

Empty control strains, which show no peptide, gave a signal in 15% of pairings with library AAYL49; the median was 4.06 and 95% of these signals were weaker than 2.83. No background was subtracted. Also given: how often the same scFv was detected with the empty control strains.
Parent in this assay: reference entry 0.65, copy in this library 4.11 (one replicate of three).

Source: Engelhart et al. 2022 (doi:10.1038/s41597-022-01779-4), MIT Lincoln Laboratory and A-Alpha Bio; data file from the FLAb repository.